# Apparent affinities of Ab-95 variants for a coronavirus HR2 peptide

Antigen: PDVDLGDISGINAS, a 14-residue peptide of the SARS-CoV-2 spike HR2 region.

Parent: Ab-95, a human scFv built as VH, three GGGGS repeats, VL. Only the CDRs of the light chain vary.
VH: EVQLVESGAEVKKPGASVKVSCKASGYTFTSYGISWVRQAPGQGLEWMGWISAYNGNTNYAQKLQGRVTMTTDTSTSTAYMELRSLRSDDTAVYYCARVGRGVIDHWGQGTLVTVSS
VL: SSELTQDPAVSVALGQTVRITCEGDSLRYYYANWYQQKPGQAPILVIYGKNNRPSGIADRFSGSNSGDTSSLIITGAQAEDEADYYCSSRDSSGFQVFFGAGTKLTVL

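Variants in AAYL52 differ from the parent at up to three CDR positions; double and triple changes were sampled at random. The scFvs were displayed on barcoded MATa yeast, the peptide on MATalpha yeast. Mating (16 h, 30 °C) was followed by selection of diploids and sequencing of their barcodes. A regression on co-assayed BCL2-family reference pairs converts the normalised counts of each replicate to an apparent Kd. Each pool was mated in three replicate cultures.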

Changes read parent residue, position, new residue, counted from the first residue of the VL shown.
Values are log10 of the apparent Kd in nM; lower means stronger binding.
Averages over replicates are reported, and they cover detected replicates only.
Where no diploid with the target was found in any replicate, the entry reads "not detected": below detection, most likely a poor binder, though not proof of it.
Empty control strains, which show no peptide, gave a signal in 28% of pairings with library AAYL52; the median was 3.91 and 95% of these signals were weaker than 2.90. No background was subtracted.

| changes | mean log10 Kd (nM) | replicates with signal |
|---|---|---|
| R53Y+D91E | 3.61 | 3 of 3 |
| S92V+F95M+V97R | 2.60 | 3 of 3 |
| R28W+S88Y+S92F | 4.97 | 3 of 3 |
| N51Q+G94L+V97E | 3.27 | 3 of 3 |
| K50F+S55T+G94F | 4.42 | 1 of 3 |
| N52A+R53W+P54H | 3.99 | 1 of 3 |
| Y29T+S88E | 1.29 | 3 of 3 |
| D25H+N52T+P54F | 3.36 | 3 of 3 |
| D25K+N51L+P54W | 4.80 | 2 of 3 |
| G24A+N33T | 0.45 | 3 of 3 |
| E23D+A32K+K50Q | 1.31 | 3 of 3 |
| K50E+D91T+V97F | 3.38 | 1 of 3 |
| S89W+F98P | 1.93 | 3 of 3 |
| R28H+N33H+S93W | not detected | 0 of 3 |
| A32K+S92K+S93A | not detected | 0 of 3 |
| G24I+S92K+Q96P | 4.06 | 3 of 3 |
| P54Y+D91V+S92M | 3.03 | 3 of 3 |
| A32S+N33H+P54I | 4.50 | 2 of 3 |
| G24A+K50G+N51L | 3.24 | 3 of 3 |
| R28H+K50V+V97P | 4.00 | 1 of 3 |
| S88M+R90M+F98M | 4.34 | 3 of 3 |
| Y31M+R53T+S88L | not detected | 0 of 3 |
| G24M+G49M+Q96E | not detected | 0 of 3 |
| E23P+G24D+S55A | 2.78 | 2 of 3 |
| N33H+S89P+F95K | 4.25 | 2 of 3 |
| D25A+N52R+F98C | 3.57 | 3 of 3 |
| L27C+Y29S+R53D | 4.86 | 1 of 3 |
| N52G+S89G+F98C | 4.07 | 1 of 3 |
| S26L+R28D+S55E | 3.39 | 2 of 3 |
| N33S+N52Y+P54C | 4.53 | 1 of 3 |
| Y29D+G49L | 4.47 | 2 of 3 |
| N33Y+G49T+G94A | not detected | 0 of 3 |
| S26K+Y31C+R53G | 2.93 | 2 of 3 |
| Y30P+D91S+V97R | not detected | 0 of 3 |
| Y30D+K50I | 2.11 | 3 of 3 |
| S88V+F98C | 3.31 | 3 of 3 |
| S88K+R90E+F95D | 1.92 | 3 of 3 |
| A32C+N51D+D91Q | 4.04 | 2 of 3 |
| N52V+R90F+V97W | 2.65 | 2 of 3 |
| R53C+S88T+S92V | 3.76 | 3 of 3 |
| Y29H+N52S+V97Q | 2.09 | 3 of 3 |
| N51A+N52H+S55W | 4.63 | 2 of 3 |
| L27A+Y31F+R53V | not detected | 0 of 3 |
| E23V+S93E+F95Y | 2.65 | 3 of 3 |
| A32S+G49L+P54N | 4.92 | 2 of 3 |
| Y29S+R90P+F95Q | 1.66 | 3 of 3 |
| S88Y+R90D+Q96L | 3.43 | 3 of 3 |
| K50N+R53A | 2.66 | 3 of 3 |
| E23I+S88Y+Q96D | 3.09 | 3 of 3 |
| Y30A+S89N+S92P | 2.62 | 3 of 3 |
| S93G+Q96F+V97I | 3.55 | 2 of 3 |
| Y31P+S88P+F95V | 3.23 | 3 of 3 |
| R53T+S92W+G94Q | 4.02 | 2 of 3 |
| Y31D+N33R+K50Y | 2.12 | 3 of 3 |
| A32P+P54H+S88W | 3.01 | 3 of 3 |
| G24L+R28A+P54V | 3.81 | 1 of 3 |
| Y31P+S89G+R90L | 2.63 | 3 of 3 |
| R28K+D91P+V97G | 2.17 | 3 of 3 |
| A32W+N51S+P54C | 5.67 | 2 of 3 |
| R28E+F95P+V97A | not detected | 0 of 3 |
| Y31G+K50F+R53T | 1.18 | 3 of 3 |
| G49K+N52L+F98S | 4.44 | 3 of 3 |
| N51I+V97K | not detected | 0 of 3 |

From the list, the first 3 with no signal in any replicate:

| changes | mean log10 Kd (nM) | replicates with signal |
|---|---|---|
| R28H+N33H+S93W | not detected | 0 of 3 |
| A32K+S92K+S93A | not detected | 0 of 3 |
| Y31M+R53T+S88L | not detected | 0 of 3 |

Parent in this assay: reference entry 2.31, copy in this library 2.25.

Values reported by Engelhart et al. 2022, doi:10.1038/s41597-022-01779-4 (FLAb copy).